# Target: T1, estrogen receptor ERβ (Homo sapiens, UniProt Q92731)
# Amino acid sequences for entries named in this document (tags omitted).
# UniProt Q92731, whole entry: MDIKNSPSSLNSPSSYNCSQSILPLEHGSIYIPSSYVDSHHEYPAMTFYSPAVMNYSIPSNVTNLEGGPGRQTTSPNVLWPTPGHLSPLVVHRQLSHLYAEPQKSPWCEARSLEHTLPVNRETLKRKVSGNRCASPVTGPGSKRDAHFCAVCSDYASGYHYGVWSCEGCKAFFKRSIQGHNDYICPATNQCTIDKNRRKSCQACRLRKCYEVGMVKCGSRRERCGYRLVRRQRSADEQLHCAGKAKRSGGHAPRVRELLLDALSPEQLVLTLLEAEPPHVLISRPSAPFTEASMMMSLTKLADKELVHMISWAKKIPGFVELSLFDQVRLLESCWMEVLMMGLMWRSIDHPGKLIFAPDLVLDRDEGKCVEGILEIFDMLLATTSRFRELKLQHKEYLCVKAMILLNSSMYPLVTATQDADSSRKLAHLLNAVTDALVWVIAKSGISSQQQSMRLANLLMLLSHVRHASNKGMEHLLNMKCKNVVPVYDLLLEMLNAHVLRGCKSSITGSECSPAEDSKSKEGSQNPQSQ
# T1 construct: host or cells: reporter cells included in the purchased panel
# Experiment: Human ERα/β reporter assay panel (ERE-luc), ERβ
# Format: cell-based
# Conditions: 100 pM, control included in the assay panel; FIG. 6
# Procedure: For evaluation of the effect of activating estrogen receptors alpha and beta (ERα/β) of the notified green tea extract, the high-temperature-processed green tea extract and theanine depending on the weight ratio of GCG:EGCG, a human ERα/β reporter assay panel (IB00421-48P, Indigo Bioscience) was treated with 20 μg/mL sample 1 (notified green tea extract), 20 μg/mL sample 2 (high-temperature-processed green tea extract), 20 μg/mL sample 3, or 20 μg/mL sample 4 of Preparation Example 1 or 2, or 1 μg/mL theanine of Preparation Example 3, for 24 hours and then the increased activity of the estrogen receptors ERα and ERβ was analyzed.
# Specifically, ERα and ERβ are overexpressed and the ERE-luc reporter gene is included in the cells included in the human ERα/β reporter assay panel. If the activity of the estrogen receptors is increased upon treatment with the test substance, ERα and ERβ are bound to ERE and the expression of luciferase is induced. Therefore, the activity of ERα and ERβ can be determined by measuring light emission from the cells.
smiles,measurement,value
C[C@]12CC[C@@H]3c4ccc(O)cc4CC[C@H]3[C@@H]1CC[C@@H]2O [17b-estradiol],activity of estrogen receptor ERβ (luciferase activity),increased the activity

# Source: patent US20210275621A1, “COMPOSITION FOR PREVENTING, ALLEVIATING, IMPROVING, OR TREATING THE FEMALE HORMONE CONTROLLING DISORDER SYNDROME OR SYMPTOMS COMPRISING GREEN TEA EXTRACT WHICH HAS MODIFIED AMOUNTS OF INGREDIENTS” (AMOREPACIFIC CORPORATION, priority 2020, published 2021)
